Experiment [1] has as its target Avi-KRAS G12D (1-169) GppNHp/RAF1 RBD-3xFLAG (52-151) (Homo sapiens, UniProt P01116, G12D). Put plainly: Raf1-KRAS G12D-GppNHP disruption HTRF assay (Biological Example 1). As to conditions: read-out: Raf1-GppNHp-KRAS G12D disruption.
Experiment [2] deals with Avi-KRAS G12R (1-169) GppNHp/RAF1 RBD-3xFLAG (52-151) (Homo sapiens, UniProt P01116, G12R). Put plainly: Raf1-KRAS G12R-GppNHP disruption HTRF assay (Biological Example 1). As to conditions: read-out: Raf1-GppNHp-KRAS G12R disruption.
Another experiment concerns SW620 cells (KRAS G12V). Put plainly: Cell-based pERK HTRF assay in SW620 cell (Biological Example 4). On the technique in general: TR-FRET usually uses a lanthanide donor and a delayed reading to cut background.
The target in experiment [3] is Avi-KRAS WT (1-169) GppNHp/RAF1 RBD-3xFLAG (52-151) (Homo sapiens, UniProt P01116). Put plainly: Raf1-KRAS WT-GppNHP disruption HTRF assay (Biological Example 1). Conditions: read-out: Raf1-GppNHp-KRAS WT disruption.
In experiment [4] the target is Avi-KRAS G12V (1-169) GppNHp/RAF1 RBD-3xFLAG (52-151) (Homo sapiens, UniProt P01116, G12V). Put plainly: Raf1-KRAS G12V-GppNHP disruption HTRF assay (Biological Example 1). As to conditions: read-out: Raf1-GppNHp-KRAS G12V disruption.
A further experiment relates to GP2d cells (KRAS G12D). Put plainly: Cell-based pERK HTRF assay in GP2d cell (Biological Example 2).
[5] abbreviates: read-out: PERK-SW620, pERK HTRF.
Where [6] appears, read: read-out: PERK-Gp2D-, pERK HTRF.
[7] abbreviates: KRAS G12D, GppNHp-loaded, class symbols.
Setting [8] is: KRAS G12R, GppNHp-loaded, class symbols.
[9] abbreviates: read-out: PERK-SW620, pERK HTRF, class symbols.
Setting [10] is: KRAS WT, GppNHp-loaded, class symbols.
Setting [11] is: KRAS G12V, GppNHp-loaded, class symbols.
Setting [12] is: read-out: PERK-Gp2D-, pERK HTRF, class symbols.

By UniProt entry, the sequences of proteins in these tests, tags left out. Residues count along the entry.
UniProt P01116, 1-169 isoform 2 limits assumed: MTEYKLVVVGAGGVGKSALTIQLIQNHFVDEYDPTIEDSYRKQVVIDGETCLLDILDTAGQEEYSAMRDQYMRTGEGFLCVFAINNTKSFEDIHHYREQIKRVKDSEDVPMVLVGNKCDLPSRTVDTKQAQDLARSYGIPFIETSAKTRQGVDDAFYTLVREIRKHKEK
UniProt P01116, 1-169 isoform 2 G12D limits assumed: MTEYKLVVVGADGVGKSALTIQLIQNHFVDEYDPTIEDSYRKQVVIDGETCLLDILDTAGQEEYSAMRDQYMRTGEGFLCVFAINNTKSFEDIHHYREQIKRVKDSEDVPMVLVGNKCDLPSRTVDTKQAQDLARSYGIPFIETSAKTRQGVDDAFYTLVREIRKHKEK
UniProt P01116, 1-169 isoform 2 G12R limits assumed: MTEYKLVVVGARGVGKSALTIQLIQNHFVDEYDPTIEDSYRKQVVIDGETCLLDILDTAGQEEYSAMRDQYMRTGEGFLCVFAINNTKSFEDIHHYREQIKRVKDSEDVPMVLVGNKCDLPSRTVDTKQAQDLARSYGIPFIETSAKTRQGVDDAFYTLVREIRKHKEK
UniProt P01116, 1-169 isoform 2 G12V limits assumed: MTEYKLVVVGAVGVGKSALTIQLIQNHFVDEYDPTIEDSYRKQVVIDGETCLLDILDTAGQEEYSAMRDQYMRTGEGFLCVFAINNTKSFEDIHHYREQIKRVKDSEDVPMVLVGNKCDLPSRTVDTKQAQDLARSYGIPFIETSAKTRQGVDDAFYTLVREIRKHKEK

Molecules are shown by their SMILES. pIC50: −log10 of the molar value. Like-named read-outs stand apart in the source and are kept apart here.

On to `CC(=O)N1CC[C@H](N(C)c2nc(OC[C@@]34CCCN3C[C@H](F)C4)nc3c(F)c(-c4ccc(F)c5sc(N)c(C#N)c45)c(C(F)(F)F)cc23)C1`, for which the pIC50 in experiment [1] (KRAS G12D, GppNHp-loaded, Table 11) was over 7.00; in experiment [2] (KRAS G12R, GppNHp-loaded, Table 11), 6.00 to 7.00; in the experiment on SW620 cells (KRAS G12V) (setting [5]), over 7.00; in experiment [3] (KRAS WT, GppNHp-loaded, Table 11), 6.00 to 7.00; in experiment [4] (KRAS G12V, GppNHp-loaded, Table 11), 6.00 to 7.00; with GP2d cells (KRAS G12D) (setting [6]) it was over 7.00.
Turning to `N#Cc1c(N)sc2c(F)ccc(-c3c(Cl)cc4c(N5CC6CC(C5)O6)nc(OC[C@@]56CCCN5C[C@H](F)C6)nc4c3F)c12`, the pIC50 in experiment [1] (KRAS G12D-GppNHp/RAF1 RBD HTRF) was 6.00 to 7.00; in experiment [2] (KRAS G12R-GppNHp/RAF1 RBD HTRF), 6.00 to 7.00; in the experiment with SW620 cells (KRAS G12V) (setting [5]) it was over 7.00; in experiment [3] (KRAS WT-GppNHp/RAF1 RBD HTRF), 6.00 to 7.00; in experiment [4] (KRAS G12V-GppNHp/RAF1 RBD HTRF), 6.00 to 7.00; with GP2d cells (KRAS G12D) (setting [6]), over 7.00.
As for `N#Cc1c(N)sc2c(F)ccc(-c3c(C(F)(F)F)cc4c(N5C[C@@H]6C[C@@H](O)[C@H]5C6)nc(OC[C@@]56CCCN5C[C@H](F)C6)nc4c3F)c12`, the pIC50 in experiment [1] (KRAS G12D-GppNHp/RAF1 RBD HTRF) is 6.00 to 7.00; in experiment [2] (KRAS G12R-GppNHp/RAF1 RBD HTRF) it was 6.00 to 7.00; in the experiment on SW620 cells (KRAS G12V) (setting [5]), over 7.00; in experiment [3] (KRAS WT-GppNHp/RAF1 RBD HTRF), 6.00 to 7.00; in experiment [4] (KRAS G12V-GppNHp/RAF1 RBD HTRF) it was 5.00 to 6.00; with GP2d cells (KRAS G12D) (setting [6]) it was over 7.00.
On to `CCN(c1nc(OC[C@@]23CCCN2C[C@H](OC)C3)nc2c(F)c(-c3ccc(F)c4sc(N)c(C#N)c34)c(C(F)(F)F)cc12)[C@H]1CCN(C(=O)C(C)C)C1`, for which the pIC50 in experiment [1] (setting [7]) is over 7.00; in experiment [2] (setting [8]), over 7.00; in the experiment on SW620 cells (KRAS G12V) (setting [9]), over 7.00; in experiment [3] (setting [10]), over 7.00; in experiment [4] (setting [11]), 6.00 to 7.00; in the experiment on GP2d cells (KRAS G12D) (setting [12]), over 7.00.
For `CCN(c1nc(OC[C@@]23CCCN2C[C@H](F)C3)nc2c(F)c(-c3ccc(F)c4sc(N)c(C#N)c34)c(Cl)cc12)[C@@H]1CCN(C(=O)C2CC2)[C@H]1C`, the pIC50 in experiment [1] (KRAS G12D-GppNHp/RAF1 RBD HTRF) is 6.00 to 7.00; in experiment [2] (KRAS G12R-GppNHp/RAF1 RBD HTRF), 5.00 to 6.00; in the experiment with SW620 cells (KRAS G12V) (setting [5]), 6.00 to 7.00; in experiment [3] (KRAS WT-GppNHp/RAF1 RBD HTRF) it was 6.00 to 7.00; in experiment [4] (KRAS G12V-GppNHp/RAF1 RBD HTRF), 5.00 to 6.00; with GP2d cells (KRAS G12D) (setting [6]), over 7.00.
Consider `CCN(c1nc(OC[C@]23CCCN2C[C@H](OC)C3)nc2c(F)c(-c3ccc(F)c4sc(N)c(C#N)c34)c(C(F)(F)F)cc12)[C@H]1CCN(C(=O)C(C)C)C1`, for which the pIC50 was 6.00 to 7.00 in experiment [1] (setting [7]); 6.00 to 7.00 in experiment [2] (setting [8]); 6.00 to 7.00 in the experiment with SW620 cells (KRAS G12V) (setting [9]); 6.00 to 7.00 in experiment [3] (setting [10]); 6.00 to 7.00 in experiment [4] (setting [11]); over 7.00 in the experiment on GP2d cells (KRAS G12D) (setting [12]).
`CC(C)C(=O)N1CC[C@@H](N(C)c2nc(OC[C@@]34CCCN3C[C@H](F)C4)nc3c(F)c(-c4ccc(F)c5sc(N)c(C#N)c45)c(Cl)cc23)[C@H]1C`: the pIC50 in experiment [1] (KRAS G12D-GppNHp/RAF1 RBD HTRF) is 6.00 to 7.00; in experiment [2] (KRAS G12R-GppNHp/RAF1 RBD HTRF), 6.00 to 7.00; in the experiment on SW620 cells (KRAS G12V) (setting [5]), 6.00 to 7.00; in experiment [3] (KRAS WT-GppNHp/RAF1 RBD HTRF), 6.00 to 7.00; in experiment [4] (KRAS G12V-GppNHp/RAF1 RBD HTRF) it was 5.00 to 6.00; in the experiment on GP2d cells (KRAS G12D) (setting [6]), over 7.00.

The record behind these values is patent publication US20260042764A1, “COMPOSITIONS AND METHODS FOR INHIBITION OF KRAS” (TheRas, Inc., priority 2022, published 2026).
